Assay results published in patent publication US20150309012A1 (BAXTER INTERNATIONAL, published 2015).

Assays:
[1] = target: oxMIF on the cell surface of U937 human monocytic cells (human, UniProt P14174 2-115, oxidised isoform (oxMIF); residues not stated); assay: cell-based or functional assay
[2] = target: oxMIF on the cell surface of NR8383 rat macrophages (rat, UniProt P30904 2-115, oxidised isoform (oxMIF); residues not stated); assay: cell-based or functional assay

IC 50 of migration inhibition of U937 cells, antibody in the inserts (upper chamber), plate 1 [1]: 1.2 nM
IC50 (inhibition of cell migration, chemokinesis assay, MI against log RAM9) [2]: 12 nM
B1: anti-oxMIF antibody RAM9 (antibody, human IgG1, kappa, V domains shown)
VH: EVQLLESGGGLVQPGGSLRLSCAASGFTFSIYSMNWVRQAPGKGLEWVSSIGSSGGTTYYADSVKGRFTISRDNSKNTLYLQMNSLRAEDTAVYYCAGSQWLYGMDVWGQGTTVTVSS
VL: DIQMTQSPSSLSASVGDRVTITCRSSQRIMTYLNWYQQKPGKAPKLLIFVASHSQSGVPSRFRGSGSETDFTLTISGLQPEDSATYYCQQSFWTPLTFGGGTKVEIKR
